Reference: ChEMBL document CHEMBL1938272 (Bioorg Med Chem, 2012)

Test system: Radical scavenging activity
Assay: Antioxidant activity assessed as DPPH free radical scavenging activity at 400 uM after 30 mins by spectrophotometry
Type: functional

Q: Which inhibition does the source give for Ic1ccc(-c2nsc(-c3ccc(I)cc3)n2)cc1 here?
A: 16.2%

Q: For Nc1ccc(-c2nsc(-c3ccc(N)cc3)n2)cc1, which inhibition is on record?
A: 33.1%

Q: How did the inhibition turn out when c1ccc(-c2nsc(-c3ccccc3)n2)cc1 was run?
A: 8.26%

Test system: HEK293
Assay: Inhibition of TNFalpha-activated NF-kappaB expressed in HEK293 cells at 50 uM by luciferase reporter gene assay
Type: cell-based

Q: With Fc1ccccc1-c1nsc(-c2ccccc2F)n1 as the molecule, how does the inhibition read?
A: 28.3%

Q: Which inhibition does the source give for Clc1ccc(-c2nsc(-c3ccc(Cl)c(Cl)c3)n2)cc1Cl here?
A: 38.3%

Q: Which inhibition does the source give for Clc1ccccc1-c1nsc(-c2ccccc2Cl)n1 here?
A: 25.3%

Q: For Cc1ccc(-c2nsc(-c3ccc(C)cc3)n2)cc1, which inhibition is on record?
A: 35.4%

Q: Which inhibition does the source give for N#Cc1ccc(-c2nsc(-c3ccc(C#N)cc3)n2)cc1 here?
A: 18.2%

Q: Oc1cccc(-c2nsc(-c3cccc(O)c3)n2)c1 was tested. Which inhibition did it give?
A: 60.4%

Q: Which inhibition does the source give for Clc1ccc(-c2nsc(-c3ccc(Cl)cc3Cl)n2)c(Cl)c1 here?
A: 45.8%

Q: How did the inhibition turn out when CCCCc1ccc(-c2nsc(-c3ccc(CCCC)cc3)n2)cc1 was run?
A: 39.4%

Q: Which inhibition does the source give for Nc1ccc(-c2nsc(-c3ccc(N)cc3)n2)cc1 here?
A: 90.6%

Q: Cc1cccc(-c2nsc(-c3cccc(C)c3)n2)c1 was tested. Which inhibition did it give?
A: 84.4%

Q: With c1ccc(-c2nsc(-c3ccccc3)n2)cc1 as the molecule, how does the inhibition read?
A: 82.4%

Q: For Clc1ccc(Cl)c(-c2nsc(-c3cc(Cl)ccc3Cl)n2)c1, which inhibition is on record?
A: 40.3%

Q: For Ic1ccccc1-c1nsc(-c2ccccc2I)n1, which inhibition is on record?
A: 10.9%

Q: For c1ccc2cc(-c3nsc(-c4ccc5ccccc5c4)n3)ccc2c1, which inhibition is on record?
A: 48.5%

Q: For O=[N+]([O-])c1ccc(-c2nsc(-c3ccc([N+](=O)[O-])cc3)n2)cc1, which inhibition is on record?
A: 15.9%

Q: Which inhibition does the source give for Oc1ccc(-c2nsc(-c3ccc(O)cc3)n2)cc1 here?
A: 78.9%

Q: COc1ccc(-c2nsc(-c3ccc(OC)cc3)n2)cc1 was tested. Which inhibition did it give?
A: 21.2%

Q: Which inhibition does the source give for Fc1cccc(-c2nsc(-c3cccc(F)c3)n2)c1 here?
A: 15.4%

Q: With N#Cc1cccc(-c2nsc(-c3cccc(C#N)c3)n2)c1 as the molecule, how does the inhibition read?
A: 46.5%
